By UniProt entry, the sequences of proteins in these tests, tags left out. Where a name states a change or a piece, a line headed by the entry shows the natural chain unless it says otherwise.
UniProt Q15750: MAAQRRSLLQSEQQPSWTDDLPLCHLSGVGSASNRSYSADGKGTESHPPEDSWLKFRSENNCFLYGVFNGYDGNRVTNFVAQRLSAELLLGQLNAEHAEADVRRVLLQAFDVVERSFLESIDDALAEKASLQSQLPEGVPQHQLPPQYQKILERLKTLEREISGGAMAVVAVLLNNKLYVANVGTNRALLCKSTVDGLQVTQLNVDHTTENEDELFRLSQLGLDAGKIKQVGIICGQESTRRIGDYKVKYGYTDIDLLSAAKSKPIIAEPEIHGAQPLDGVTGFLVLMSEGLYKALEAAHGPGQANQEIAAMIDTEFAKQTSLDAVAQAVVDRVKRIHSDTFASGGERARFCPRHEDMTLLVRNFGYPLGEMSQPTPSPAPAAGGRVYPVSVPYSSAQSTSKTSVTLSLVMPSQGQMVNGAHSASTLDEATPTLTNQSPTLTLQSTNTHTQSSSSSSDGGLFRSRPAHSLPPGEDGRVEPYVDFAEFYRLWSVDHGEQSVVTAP
UniProt O43318: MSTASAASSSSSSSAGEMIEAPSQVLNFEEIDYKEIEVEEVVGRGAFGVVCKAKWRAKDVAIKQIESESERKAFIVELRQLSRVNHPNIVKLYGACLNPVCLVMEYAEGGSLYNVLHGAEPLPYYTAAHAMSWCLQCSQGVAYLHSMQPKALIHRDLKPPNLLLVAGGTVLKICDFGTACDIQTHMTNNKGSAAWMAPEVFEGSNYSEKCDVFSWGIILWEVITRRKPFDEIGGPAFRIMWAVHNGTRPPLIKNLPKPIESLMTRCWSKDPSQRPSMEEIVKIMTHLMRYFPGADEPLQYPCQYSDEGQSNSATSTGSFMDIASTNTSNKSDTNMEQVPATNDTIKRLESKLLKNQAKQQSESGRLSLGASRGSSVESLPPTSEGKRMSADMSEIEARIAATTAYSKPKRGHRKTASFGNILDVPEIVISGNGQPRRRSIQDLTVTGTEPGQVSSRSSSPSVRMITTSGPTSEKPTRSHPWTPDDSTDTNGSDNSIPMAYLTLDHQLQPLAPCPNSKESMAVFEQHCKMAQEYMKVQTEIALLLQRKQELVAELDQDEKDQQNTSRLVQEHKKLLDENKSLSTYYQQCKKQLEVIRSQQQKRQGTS
UniProt Q9H2K8: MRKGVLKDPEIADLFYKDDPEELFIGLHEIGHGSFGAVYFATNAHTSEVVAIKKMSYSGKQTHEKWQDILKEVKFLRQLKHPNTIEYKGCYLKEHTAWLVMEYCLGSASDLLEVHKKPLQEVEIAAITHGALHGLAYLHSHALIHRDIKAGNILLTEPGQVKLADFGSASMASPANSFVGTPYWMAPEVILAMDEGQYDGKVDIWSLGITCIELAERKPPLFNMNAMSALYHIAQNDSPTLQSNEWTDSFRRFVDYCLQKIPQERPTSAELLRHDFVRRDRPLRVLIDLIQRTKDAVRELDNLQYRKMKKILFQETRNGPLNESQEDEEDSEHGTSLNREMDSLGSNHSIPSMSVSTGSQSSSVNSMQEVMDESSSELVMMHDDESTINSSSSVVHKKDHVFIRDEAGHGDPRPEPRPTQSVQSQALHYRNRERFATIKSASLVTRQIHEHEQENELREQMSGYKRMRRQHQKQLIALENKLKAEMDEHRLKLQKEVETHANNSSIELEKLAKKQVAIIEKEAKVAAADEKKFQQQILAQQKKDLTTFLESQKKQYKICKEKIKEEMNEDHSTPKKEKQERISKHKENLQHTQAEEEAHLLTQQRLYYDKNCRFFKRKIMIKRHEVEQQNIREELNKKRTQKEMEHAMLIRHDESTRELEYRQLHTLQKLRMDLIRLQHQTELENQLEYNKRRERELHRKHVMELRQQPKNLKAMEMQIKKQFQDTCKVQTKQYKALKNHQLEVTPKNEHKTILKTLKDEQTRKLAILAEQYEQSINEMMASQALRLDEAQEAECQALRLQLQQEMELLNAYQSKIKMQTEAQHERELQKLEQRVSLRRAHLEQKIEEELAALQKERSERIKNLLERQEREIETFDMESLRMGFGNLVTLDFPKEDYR

According to the kinase profiling compilation of Christmann-Franck et al. (2016):

Key:
MAP3K7 TAB1 (human) = MAP3K7 TAB1 (human) (UniProt Q15750+O43318); assay: radiometric filter-binding kinase assay
MAP3K7 (human) = MAP3K7 (human) (UniProt O43318); assay: KINOMEscan competition binding; details: compound 10.0 µM
TAOK3 (human) = TAOK3 (human) (UniProt Q9H2K8); assay: KINOMEscan competition binding; details: compound 10.0 µM

residual activity (MAP3K7 TAB1 (human); compound 0.1 µM): 11%
residual activity (MAP3K7 TAB1 (human); compound 1.0 µM): 7.47%
residual activity (MAP3K7 TAB1 (human); compound 10.0 µM): 4.09%
kinase still bound, per cent of control (MAP3K7 (human)): 0.15%
kinase still bound, per cent of control (TAOK3 (human)): 0.15%
Compound: CCN1CCN(Cc2ccc(NC(=O)c3ccc(C)c(Oc4ccnc5[nH]ccc45)c3)cc2C(F)(F)F)CC1
